System: HPV- (SCC19, SCC29) and HPV+ (SCC47, SCC104, SCC152) HNSCC cell lines
Assay: Sensitization of HNSCC cell lines to photon radiation
Type: cell-based
Details: radiation 0-4Gy followed by inhibitor; DER10
Description: FIGS. 11A-11D are graphical representations of the radio-response of HPV^− cell lines (SCC19 and SCC29) and HPV^+ cell lines (SCC47 and SCC104) when subject to photon radiation followed by treatment with either the vehicle alone or cisplatin (CCDP), as measured by MTT assays. The dose enhancement ratio for 10% survival (DER10) was calculated as follows: DER10=(Dose correlated with 10% survival fraction in radiation-treated cells)/(Dose correlated with 10% survival fraction in radiation and inhibitor treated cells). […] FIGS. 11E-12H are graphical representations of the radio-response of HPV^− cell lines (SCC19 and SCC29) and HPV^+ cell lines (SCC47 and SCC104) when subject to photon radiation followed by treatment with either the vehicle alone or cetuximab, as measured by MTT assays.
CCDP, Cetuximab, and GA-OH were evaluated for their ability to sensitize HNSCC cell lines to photon radiation. […]
Colonies were counted after 14-21 days and normalized to vehicle control and survival analysis was performed. FIGS. 11A-11D are graphical representations of the radio-response of HPV^− cell lines (SCC19 and SCC29) and HPV^+ cell lines (SCC47 and SCC104) when subject to photon radiation followed by treatment with either the vehicle alone or cisplatin (CCDP), as measured by MTT assays. […]
Sensitization of an additional HPV^+ cell line to radiation by CDDP, Cetuximab and GA-OH was evaluated. […]

Substance: cetuximab: an anti-EGFR monoclonal antibody [reference compound]
- sensitization to photon radiation: least sensitization

— patent publication US20250025440A1, “COMPOSITIONS AND METHODS FOR MANAGEMENT OF HUMAN PAPILLOMA VIRUS-ASSOCIATED CANCERS” (LOMA LINDA UNIVERSITY, priority 2021, published 2025)
